Laboratory results taken from US11731927B2, “Cocrystals of ubiquinol and compositions comprising them” (Center for Intelligent Research in Crystal Engineering, S.L., priority 2018, dated 2023).

Assays:
[1] = Stability study, comparative ubiquinol vs cocrystals: storage in a chamber, periodic analysis for ubiquinone and the form detected; assay type: physicochemical; settings: 25° C.-57% HR; "<" ubiquinone detected at least after the indicated days; ">" ubiquinone not detected yet
Procedure: Powder X-Ray diffraction (PXRD) analyses were performed by sandwiching the powder samples between polyester films of 10 micrometres of thickness or polyamide (kapton) films of 15 micrometres of thickness and analysed in a PANalytical X′Pert PRO MPD q/q powder diffractometer of 240 millimetres of radius, in a configuration of convergent beam with a focalizing mirror and a flat sample transmission geometry, in the following experimental conditions: Cu Kα radiation (λ=1.5406 Å); Work power: 45 kV and 40 mA; Incident beam slits defining a beam height of 0.4 millimetres; Incident and diffracted beam 0.02 radians Soller slits; PIXcel detector: Active length=3.347°; 2θ/θ scans from 2 to 40° 2θ with a step size of 0.026° 2θ and a measuring time of 76 seconds per step.
The stability of the different forms has been studied under two experimental conditions. The samples were stored under both conditions inside a Series FD Binder chamber and they were analyzed periodically: • condition A: 25° C. and 57% of relative humidity; • condition B: 40° C. and 75% of relative humidity.
A saturated solution of sodium bromide salt (57% RH) and a saturated solution of sodium chloride (75% RH) were used to control relative humidity.
75% HR by indicating the form detected after the mentioned days. No ubiquinone was detected at least after 14 days.

[2] = as above; assay type: physicochemical; settings: relative humidity not controlled, "<" ubiquinone detected at least after the indicated days, ">" ubiquinone not detected yet

Substance: Cocrystal Hydrate of Ubiquinol and 3,4-dihydroxybenzoic Acid [P58-III]
- stability at 25° C. measured by controlling the moment when ubiquinone was detected [1]: >551 days
- stability at 25° C. measured by controlling the moment when ubiquinone was detected [2]: >133 days
